The values that follow are results of earlier work, collected in publication PMC2866165 (Nuclear medicine and biology, 2010).

The data set concerns PDE10A. Particulars: read-out: IC50 for PDE10A.

The structures appear in SMILES notation.

As to `COc1ccc(Cc2nccc3cc(OC)c(OC)cc23)cc1OC` [Papaverine, 1-(3,4-dimethoxybenzyl)-6,7-dimethoxyisoquinoline], the IC50 is 36 nM.
